Results reported in ChEMBL document CHEMBL3352477, “Unfolded Protein Response in Cancer: IRE1α Inhibition by Selective Kinase Ligands Does Not Impair Tumor Cell Viability” (ACS Med Chem Lett, 2015).

Assay: Selectivity ratio of IC50 for human wild type JNK3 to IC50 for human IRE1alpha

Row | Compound | Ratio IC50
1 | CN(C)CCNc1nccc(-c2cccnc2Oc2ccc(Nc3nc4ccccc4[nH]3)c3ccccc23)n1 | 4.9
2 | Cc1cc(NS(=O)(=O)c2ccccc2C#N)c2ccccc2c1Oc1ncccc1-c1ccnc(N[C@H]2CC[C@H](N)CC2)n1 | 33
3 | Cc1cc(Nc2nc3ccccc3o2)c2ccccc2c1Oc1ncccc1-c1ccnc(N[C@H]2CC[C@H](N)CC2)n1 | 0.5
4 | Cc1ccc2c(NS(=O)(=O)c3ccccc3Cl)cccc2c1Oc1ncccc1-c1ccnc(N[C@H]2CCCNC2)n1 | 192
5 | N[C@H]1CC[C@H](Nc2nccc(-c3cccnc3Oc3ccc(Nc4nc5ccccc5[nH]4)c4ccccc34)n2)CC1 | 0.17
6 | N[C@H]1CC[C@@H](Nc2nccc(-c3cccnc3Oc3ccc(Nc4nc5ccccc5[nH]4)c4ccccc34)n2)CC1 | 0.17
7 | Cc1cc(Nc2nc3ccccc3[nH]2)c2ccccc2c1Oc1ncccc1-c1ccnc(NCCN(C)C)n1 | 51
8 | Cc1cc(Nc2nc3ccccc3[nH]2)c2ccccc2c1Oc1ncccc1-c1ccnc(N[C@H]2CCCNC2)n1 | 3.9
